Data: patent publication US20110294738A1, “PTHR1 RECEPTOR COMPOUNDS” (priority 2008, published 2011)

Molecular target: PTHR1 receptor

Inhibition of Maximal Response: 1.2%
Binder: RETNAGRSDTRQ (N-terminal palmitoyl (Pal-) and C-terminal amide, by the method of Compound 82) [Compound 63]
